# Patent US11266624B2, “CRM1 inhibitors reduce primary and acquired resistance of EGFR inhibitors in lung cancer cells” (Texas Tech University System, priority 2018, dated 2022)
# System: A549
# Assay: Western blot of EGFR signaling and survival pathways in A549
# Format: cell-based, human
# Details: for Relative protein expression level of Akt: 48 hrs, A549, control 100.0±0
# Description: Western blot analyses. […] Relative densitometric digital analysis for bands of targeted proteins was determined using Image J and normalized by the intensity of the housekeeping gene, α-tubulin.
compound,measurement,setting,value
COc1cc2ncnc(Nc3ccc(F)c(Cl)c3)c2cc1OCCCN1CCOCC1 [gefitinib],Relative protein expression level of Akt,12 μM gefitinib (alone or + 0.5 nM LMB),86±14
same,Relative protein expression level of Akt,24 μM gefitinib (alone or + 0.5 nM LMB),70±9
same,p-EGFR(Tyr1068) expression compared with controls,"A549, 48 hrs, 12/24 μM gefitinib, 0.5 nM LMB",decreased
same,p-Akt(Ser473) expression,"A549, 48 hrs, co-treatment compared with gefitinib alone",inhibited in a dose-response manner
